# Experimental data: patent US9327023B2, “HER2 targeting agent treatment in non-HER2-amplified cancers having HER2 expressing cancer stem cells” (The Regents of the University of Michigan, priority 2011, dated 2016)
# “Also recorded” adds a separate entry of the source.
# Assays:
# IL6 = IL6 secretion of BT474 cells under trastuzumab; type: cell-based, human; details: BT474-DsRed cells, 3 days of trastuzumab treatment
# Protocol: To determine whether induction of the CSC phenotype was dependent on IL6 production, the effect of addition of IL6 receptor antibody on induction of the CSC phenotype was assessed. […] The ability of the anti-IL6R antibody to affect the CD44^+/CD24^− population in Sum159 cells, which lack the expression of the luminal CD24 marker, was examined.
# [1] = system: trastuzumab-sensitive BT474-DsRed xenografts; experiment: BT474-DsRed xenografts; type: in vivo, NOD/SCID mice
# [2] = system: HER2 amplified breast cancers; details: addition of trastuzumab to chemotherapy compared to chemotherapy alone, adjuvant trials; cited from earlier work
# [3] = system: trastuzumab-resistant BT474-PTEN- xenografts; experiment: BT474-PTEN- xenografts; type: in vivo, NOD/SCID mice
# Protocol: (§1) Treatments for all early settings were 8 weeks long. […] Drug doses were as described in early setting.
# Experiments were conducted during development of embodiments of the present invention to examine the effect of anti-IL6R antibody on trastuzumab-sensitive BT474-DsRed and trastuzumab-resistant BT474-PTEN^− xenografts. […] To determine the effects of these treatments on the development of metastasis, we excised primary BT474-PTEN^− tumors after 8 weeks of treatment and assessed subsequent development of local and distant metastasis by luciferase imaging (FIG. 7D). […] The effects of these treatments were also reflected in human cytokine levels secreted in the bloodstream of these animals as determined by ELISA (FIG. 7E).
# [4] = system: breast CSCs (tumor-initiating cells); experiment: reimplantation assay of residual tumor cells into secondary mice; type: in vivo; details: residual tumors from treated mice
# Text: One of the hallmarks of CSC model is their ability to initiate tumors in secondary reimplantation assays (Clarke et al., 2006; herein incorporated by reference in its entirety).
# MCF7 [5] = experiment: Aldefluor assay in vitro; type: cell-based, human
# Protocol: (§2) Human breast cancer cell lines, MCF7, ZR75-1, BT474, SKBR3 and SUM159 were employed. The MCF-7 cell line was obtained from ATCC and fingerprinting was done on the MCF-7shHER-2 and MCF-7shVector cell lines, validating that they were MCF-7 prior to injections into tibiae. Cell lines were grown using recommended culture condition. Trastuzumab was obtained from the Pharmacy, University of Michigan Comprehensive Cancer Center.
# (§3) The Aldefluor kit (Stemcells Technology) was used according to the manufacturer's protocol to identify and isolate the population with high Aldehyde dehydrogenase activities using flow cytometry. To distinguish between ALDH-positive and ALDH-negative cells, a fraction of cells were incubated under identical condition in the presence of 10-fold molar excess of ALDH inhibitor, diethylaminobenzaldehyde (DEAB). Both samples and negative control were incubated in 37° C. for 40 minutes. For FACS analysis the gates were normalized with the Aldefluor-stained cells treated with DEAB.
# SUM159 [6] = experiment: Aldefluor assay in vitro; type: cell-based, human
# Protocol: as §2, §3
# ZR75-1 [7] = experiment: Aldefluor assay in vitro; type: cell-based, human; details: ZR75-1 (b158 prints ZR25-1)
# Protocol: as §2, §3
# MDA-MB231 = experiment: Aldefluor assay in vitro; type: cell-based, human
# Protocol: as §2, §3
# MCF7 [8] = experiment: mammosphere assay; type: cell-based, human; details: MCF7, 1-week trastuzumab 20 μg/μl
# Protocol: as §2
# (§4) Single cells were initially plated on ultralow attachment plate at a density of 100,000 cells/ml with serum-free mammary epithelial basal medium (Mammocult, Stemcell Technologies). Mammosphere were counted manually under light microscope on the 7th day. Then, mammosphere dissociation was performed and re-cultured with the density of 10,000 cells/ml and further assessed for secondary and tertiary mammosphere formation. Efficiency of sphere forming was analyzed from at least 3 independent repeats.
# SUM159 [9] = experiment: mammosphere assay; type: cell-based, human; details: basal/claudin low SUM159
# Protocol: as §2, §4
# ZR75-1 [10] = experiment: mammosphere assay; type: cell-based, human; details: ZR75-1, 1-week trastuzumab 20 μg/μl
# Protocol: as §2, §4
# [11] = system: MCF7-HER2+PTEN- xenografts; experiment: MCF7-HER2+PTEN- xenografts; type: in vivo, NOD/SCID mice
# Protocol: as §1
# (§5) Experiments were conducted during development of embodiments of the present invention to examine the biological consequences of increased CSC populations generated by HER2 overexpression and PTEN knockdown by implanting these cells into the mammary fat pads of NOD/SCID mice.
# BT474 cells [12] = experiment: cell growth / viable cells of BT474 cells; type: cell-based, human
# BT474 cells [13] = experiment: tumorspheres in suspension cultures of BT474 cells; type: cell-based, human
# Protocol: (§6) Single cells were plated on ultra-low attachment plates at a density of 1×10^5/ml and grown for 7 days in a mammocult medium (Stem Cell Technologies). After the treatment of primary spheres, they were dissociated into single-cell suspension and plated at a density of 5×10^3-1×10^4/ml for the subsequent passages. Secondary spheres were counted after 5-7 days in culture.
# [14] = system: MCF7-HER2+ and MCF7-HER2+PTEN- cells; experiment: Aldefluor assay in vitro, engineered cells; type: cell-based, human; details: for reduced the Aldefluor-positive population: MCF7-HER2+ cells; for Aldefluor-positive population: MCF7-HER2+PTEN- cells
# Protocol: (§7) To measure ALDH activity, the Aldefluor assay was carried out according to manufacturer's guidelines (StemCell Technologies, Inc., Durham, N.C.). Indicated cells were incubated with fluorophore-conjugated CD44 or CD24 antibodies alone or in combination on ice for 30 min, washed with Hank's balanced salt solution (HBSS), and resuspended in DAPI containing HBSS buffer for flow cytometry analyses.
# [15] = system: SUM159-HER2+ and SUM159-HER2+PTEN- cells; experiment: Aldefluor assay in vitro, engineered cells; type: cell-based, human; details: for reduced the Aldefluor-positive population: SUM159-HER2+ cells; for Aldefluor-positive population: SUM159-HER2+PTEN- cells
# Protocol: as §7
# [16] = system: BT474-DsRed and BT474-PTEN- cells; experiment: CD44+/CD24- flow cytometry of BT474 cells; type: cell-based, human; details: for proportion of CD44+/CD24- cells: BT474-PTEN cells
# Protocol: as §7
# However, there was approximately a 2-fold increase in IL6 secretion when cells were treated for 3 weeks or longer (SEE FIG. 14A). […] The effects of trastuzumab-mediated IL6 production on CSCs were also tested. […] In contrast, downregulation of PTEN in these cells generated a population that contained approximately 10% CD44^+/CD24^− cells (FIG. 14B). […] To determine whether induction of the CSC phenotype was dependent on IL6 production, the effect of addition of IL6 receptor antibody on induction of the CSC phenotype was assessed. […] The ability of the anti-IL6R antibody to affect the CD44^+/CD24^− population in Sum159 cells, which lack the expression of the luminal CD24 marker, was examined. […] This discrepancy may be explained by the existence of different stem cell populations in different breast cancer subtypes.
# [17] = system: MCF7 cells (parental, HER2+, PTEN-, HER2+PTEN-); experiment: tumorsphere assay, secondary spheres; type: cell-based, human
# Protocol: as §6
# [18] = system: SUM159 cells (parental, HER2+, PTEN-, HER2+PTEN-); experiment: tumorsphere assay, secondary spheres; type: cell-based, human
# Protocol: as §6
# MCF7-HER2+ xenografts = experiment: MCF7-HER2+ xenografts; type: in vivo, NOD/SCID mice
# Protocol: as §1, §5
# BT474-PTEN- cells = experiment: mRNA expression of cytokines, EMT and epithelial markers; type: cell-based, human
# p65 NF-kB = p65 NF-kB phosphorylation; type: cell-based, human
# Protocol: To determine whether NF-kB activation was involved in these processes, p65 NF-kB phosphorylation was assessed.
substance,measurement,setting,value
trastuzumab,IL6 levels,IL6,modest decrease
same,growth of BT474-DsRed xenografts,"[1]; 7-week period, compared to saline",significantly inhibited
same,tumors in trastuzumab-treated mice began to grow (acquired resistance),"[1]; mouse, in vivo",≤ 5 Week
same,reduction in recurrence rate,[2],50%
same,growth of BT474-PTEN- xenografts,[3]; early treatment,accelerated; also recorded: no effect
same,secondary tumors and distant metastasis after excision of primary tumors,"[3]; excised after 8 weeks of treatment, luciferase imaging",quickly developed secondary tumors and distant metastasis
same,serum IL6 levels,[3]; human specific ELISA,markedly increasing; also recorded: significantly higher
same,frequency of breast CSCs,[4],increased
same,percent of Aldefluor-positive cells,MCF7 [5],significantly reduced; also recorded: lower percentage
same,Aldefluor-positive populations,SUM159 [6],no effect; also recorded: does not have suppressive effect
same,percent of Aldefluor-positive cells,ZR75-1 [7],significantly reduced; also recorded: lower percentage
same,Aldefluor-positive populations,MDA-MB231,no effect; also recorded: does not have suppressive effect
same,tertiary mammosphere formation,MCF7 [8],significantly reduced; also recorded: significantly lower number
same,mammosphere formation,SUM159 [9],no effect
same,tertiary mammosphere formation,ZR75-1 [10],significantly reduced; also recorded: significantly lower number
same,Aldefluor-positive populations,[11]; MCF7-HER2+PTEN- tumors,slight increase
same,response of tumors to trastuzumab,[11]; MCF7-HER2+PTEN- xenografts,de novo resistance; also recorded: resistant
same,cell growth / viability,BT474 cells [12]; BT474-PTEN- cells,unaffected
same,cell growth / viability,"BT474 cells [12]; BT474-PTEN- cells, listed as Trastuzumab",no effect
same,cell growth / viability,BT474 cells [12]; parental BT474 cells with CM from BT474-PTEN-LTT cells or recombinant IL6,resistant
same,cell growth / viability,"BT474 cells [12]; parental BT474 cells with CM from BT474-PTEN-LTT cells or recombinant IL6, listed as Trastuzumab",no effect
same,reduced the sphere forming cells,BT474 cells [13]; BT474 cells,more than 50%
same,sphere formation,BT474 cells [13]; BT474 cells in the presence of IL6 or CM,failed to inhibit
same,reduced the Aldefluor-positive population,[14],75%
same,reduced the Aldefluor-positive population,[14]; listed as Trastuzumab,more than 50%
same,Aldefluor-positive population,[14],non-significant change
same,Aldefluor-positive population,[14]; listed as Trastuzumab,no effect
same,reduced the Aldefluor-positive population,[15],50%
same,reduced the Aldefluor-positive population,[15]; listed as Trastuzumab,more than 50%
same,Aldefluor-positive population,[15],non-significant change
same,Aldefluor-positive population,[15]; listed as Trastuzumab,no effect
same,proportion of CD44+/CD24- cells,[16]; trastuzumab 3 weeks,51%
same,proportion of CD44+/CD24- cells,[16]; trastuzumab 3 days (about 10% without),32%
same,CD44+/CD24- cells,[16]; parental BT474-DsRed cells after trastuzumab treatment,not significantly altered
same,secondary tumorsphere formation,[17]; MCF7-HER2+PTEN- cells,no significant effect; also recorded: not affected
same,secondary spheres,[17]; MCF7-PTEN- cells,not affected
same,tumorsphere formation,"[17]; parental MCF7 cells, primary spheres treated 5-7 days",no significant effect
same,secondary tumorsphere formation,[18]; SUM159-HER2+PTEN- cells,no significant effect; also recorded: not affected
same,secondary spheres,[18]; Sum159-PTEN- cells,not affected
same,tumorsphere formation,"[18]; parental SUM159 cells, primary spheres treated 5-7 days",no significant effect
same,percentage of Aldefluor-positive tumor cells reduced,MCF7-HER2+ xenografts; MCF7-HER2+ tumors,over 50%
same,tumor size / growth,"MCF7-HER2+ xenografts; MCF7-HER2+ xenografts, trastuzumab treatment",reduced tumor size; also recorded: inhibition of tumor growth
same,"epithelial-associated genes E-cadherin, EpCAM, and Claudin",BT474-PTEN- cells,downregulation
same,NF-kB phosphorylation,p65 NF-kB; BT474-PTEN- cells compared to parental cells,Increased
same,NF-kB phosphorylation,p65 NF-kB; SKBR3-PTEN- cells compared to parental cells,Increased
